According to patent US20080085893A1, “MATRIX METALLOPROTEASE INHIBITORS” (priority 2006, published 2008):

Target: T1, human MMP-2 (amino acids 1-660) (Homo sapiens, UniProt P08253)
T1 construct: human MMP-2 (amino acids 1-660); made in house
T1 sequence (P08253 110-660): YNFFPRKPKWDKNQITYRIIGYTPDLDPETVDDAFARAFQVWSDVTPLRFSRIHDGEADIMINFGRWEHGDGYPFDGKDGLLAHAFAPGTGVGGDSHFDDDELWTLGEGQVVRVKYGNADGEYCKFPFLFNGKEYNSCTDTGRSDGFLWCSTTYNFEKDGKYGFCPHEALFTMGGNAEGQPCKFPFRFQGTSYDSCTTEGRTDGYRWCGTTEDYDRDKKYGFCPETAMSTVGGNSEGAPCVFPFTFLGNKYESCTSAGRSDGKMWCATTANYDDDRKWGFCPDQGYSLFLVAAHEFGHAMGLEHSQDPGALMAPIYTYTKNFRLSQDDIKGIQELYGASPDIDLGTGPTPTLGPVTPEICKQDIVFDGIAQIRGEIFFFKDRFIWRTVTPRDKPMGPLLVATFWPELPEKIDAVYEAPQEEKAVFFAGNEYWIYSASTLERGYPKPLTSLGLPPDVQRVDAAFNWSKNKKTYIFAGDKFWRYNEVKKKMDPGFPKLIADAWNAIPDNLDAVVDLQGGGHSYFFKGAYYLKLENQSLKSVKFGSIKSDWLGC
Assay: MMP dose response assay for determining IC50, MMP-2
Assay type: biochemical
Details: recombinant enzyme, fluorescent-quench substrate 100 nM
Method: MMP Dose Response Assay for Determining IC50
The following method was used for determining IC50 values of different inhibitor compounds against multiple MMP enzymes. Frozen stocks of recombinantly produced MMPs were prepared in assay buffer (50 mM HEPES pH 7.4, 10 mM CaCl2, 0.05% Brij-35). […] Enzyme concentrations in the assay were determined empirically and set such that proteolytic activity was maintained in a linear range over the time-course of the experiment. […] Each concentration for each test compound was tested in triplicate. MMP enzymes were equilibrated with compounds for 1 hour at room temperature, then a fluorescent-quench substrate (Acetyl-Cys(Eu)-Pro-Leu-Gly-Leu-Lys-(QSY7)-Ala-Arg-amide) was added to a final concentration of 100 nM. […] Data was analyzed by first calculating average background value from wells that contained only substrate, and this value was subtracted from the entire plate. The 100%, or maximum value, was determined by averaging control wells that contained enzyme, substrate and DMSO. For each well, the percent of control was calculated by dividing the well value by the average DMSO value obtained above.

Compound `CS(=O)(=O)N(C[C@H](O)C(=O)NO)c1ccc(Oc2ccc(C(F)(F)F)cn2)cc1` [Example 53, N-Hydroxy (2S)-2-hydroxy-3-{N-{4-[(5-trifluoromethylpyridin-2-yl)oxy]phenyl},N-methanesulfonylamino}propionamide] has an IC50 of 2540 nM.
